scFv variants of Ab-91 (heavy chain) against a SARS-CoV-2 spike peptide

Values reported by Engelhart et al. 2022, doi:10.1038/s41597-022-01779-4 (FLAb copy).

Target: peptide PDVDLGDISGINAS, taken from heptad repeat 2 (HR2) of SARS-CoV-2 spike.

Parent scFv Ab-91: VL joined to VH by the linker GGGGSGGGGSGGGGS. Changes lie in the heavy chain CDRs alone.
VL: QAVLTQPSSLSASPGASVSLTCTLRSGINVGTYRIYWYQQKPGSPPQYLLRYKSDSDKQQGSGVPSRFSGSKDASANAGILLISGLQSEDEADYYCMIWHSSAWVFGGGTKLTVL
VH: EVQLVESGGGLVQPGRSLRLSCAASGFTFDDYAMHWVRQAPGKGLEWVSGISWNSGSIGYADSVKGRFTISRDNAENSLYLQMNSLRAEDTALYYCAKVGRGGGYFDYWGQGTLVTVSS

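The starting antibody came from a phage panning campaign against this peptide. Variants in AAYL51 differ from the parent at up to three CDR positions; double and triple changes were sampled at random. The scFvs were displayed on barcoded MATa yeast, the peptide on MATalpha yeast. Pairs that bind mate more often; barcode pairs of the diploids are counted by sequencing. The ratio of observed to expected reads was calibrated, replicate by replicate, on BCL2-family standards whose Kd was known from biolayer interferometry. There are three technical replicates.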

The parent's heavy chain CDRs are GFTFDDYAMH, GISWNSGSIGYADSVK, VGRGGGYFDY; each variant's own CDRs replace them letter for letter. Kd is apparent (estimated from mating counts) and averaged on the log scale over replicates with a signal. Smaller is tighter. Where no diploid with the target was found in any replicate, the entry reads "nd": below detection, most likely a poor binder, though not proof of it.

| # | Kd | seen in | CDR-H1 | CDR-H2 | CDR-H3 |
|---|---|---|---|---|---|
| 1 | 160 nM | 3 of 3 | GFTFDDTAMH | GISWNSGSIGYADSVK | WGRGGGYFMY |
| 2 | nd | 0 of 3 | GFTFDDYARH | GISRNSGSIGYADSVK | VGRGGEYFDY |
| 3 | nd | 0 of 3 | GFTFDDYAKE | GISWNSGSIGYADSVK | VGRGGWYFDY |
| 4 | nd | 0 of 3 | GFTFDVYHMH | GISWNSGSIGYADSEK | VGRGGGYFDY |
| 5 | 360 µM | 2 of 3 | GMTFDDYAMH | GISWNSGSIGYADSVK | YGRGGGYFDY |
| 6 | 4.9 µM | 2 of 3 | AFTMVDYAMH | GISWNSGSIGYADSVK | VGRGGGYFDY |
| 7 | 16 µM | 1 of 3 | GRTFDDYAMH | GISHNSGSIGYADSVK | VGRGGGCFDY |
| 8 | nd | 0 of 3 | FFTFDDYAML | GISWNSGSIGYADSVK | VGRGGGYFDY |
| 9 | 88 µM | 2 of 3 | GFTFDDTAMH | GISWKSGSIGYADSVK | VGRGGGYFGY |
| 10 | nd | 0 of 3 | GFTFDDQAMH | GMSWNSGSIEYADSVK | VGRGGGYFDY |
| 11 | nd | 0 of 3 | GFTFDDYAMH | GIHWNSGSIGYADSVK | VGEGGSYFDY |
| 12 | 75 nM | 3 of 3 | GFTFRDYAMH | GISWNSGSIGYVDSVK | VGRGGGYFDI |
| 13 | nd | 0 of 3 | GFTFDDYAMH | GISWNSGSIGYADSVK | SGRSGGYFDP |
| 14 | 21 µM | 3 of 3 | GFKFDDYAMH | GISWNSGSHGYADAVK | VGRGGGYFDY |
| 15 | nd | 0 of 3 | GFTFDLYAMH | GKSWNSGSIGYADSVN | VGRGGGYFDY |
| 16 | 77 µM | 2 of 3 | GFTFDDYAMH | GISWNDGSIGYMDSVK | VGRGFGYFDY |
| 17 | nd | 0 of 3 | QFTFQDYAMH | GISWNSGSIGYADSVK | VKRGGGYFDY |
| 18 | 14 µM | 2 of 3 | GFTFDDIAMH | GISWNSGSIGYADEVK | VGRLGGYFDY |
| 19 | 130 µM | 1 of 3 | GFTFDDYAMH | GISWKSGAIGYADSVK | VGRGRGYFDY |
| 20 | nd | 0 of 3 | GFTFRDYAEH | LISWNSGSIGYADSVK | VGRGGGYFDY |
| 21 | 110 µM | 2 of 3 | GFTFDSIAMH | GISWNSGSIGYADSVK | VGRGGGYFHY |
| 22 | 18 µM | 1 of 3 | MFTFDDYAMH | GISWNSGSIGYADSVK | VGRDGGGFDY |
| 23 | 17 µM | 1 of 3 | GFTFYDYAMC | GISWNSGSIGYADSVK | VGRGGYYFDY |
| 24 | 19 µM | 1 of 3 | GFTFDDYVMH | GISWNSWSIGYADSVK | VGRGGGYFIY |
| 25 | nd | 0 of 3 | GFTFSDYAMH | GISWNFGSIGYADSVK | VGREGGYFDY |
| 26 | nd | 0 of 3 | GPTFDDEAMH | GISWNSGSIGYACSVK | VGRGGGYFDY |
| 27 | nd | 0 of 3 | GFTTDDYAMH | GISWNSGSIGYADSVW | VIRGGGYFDY |
| 28 | 28 µM | 1 of 3 | AFTFDDYAMH | GISWNSGSIGYADSVK | VHRGGGYFDY |
| 29 | 460 µM | 3 of 3 | GFTFDDYAMH | GISWNSGSIIYKDQVK | VGRGGGYFDY |
| 30 | nd | 0 of 3 | KFTFDDYAMY | GISWNSGSIGYADSVK | VGRGIGYFDY |
| 31 | nd | 0 of 3 | GFFFDDYAMH | CISWNSGSIGYADSVK | VGRRGGYFDY |
| 32 | nd | 0 of 3 | GQTRDDYAMT | GISWNSGSIGYADSVK | VGRGGGYFDY |
| 33 | 210 µM | 2 of 3 | GFTFDDYAMH | GIIANSGSIGYADSDK | VGRGGGYFDY |
| 34 | 57 µM | 2 of 3 | GRTFDDYAMH | GISWNSGSIGYADSVK | VGRGHGTFDY |
| 35 | nd | 0 of 3 | GFTFDDYAMH | GISGNSGSMGYADSVK | VGRGGGYFDY |
| 36 | 22 µM | 2 of 3 | GFTFDDYAMH | GISWNSGSIGYADSVK | VGRGAGMFDY |
| 37 | nd | 0 of 3 | GFTFDDFAMH | GISWNSGLIGYADGVK | VGRGGGYFDY |
| 38 | 1.3 µM | 1 of 3 | GFTFDDYAMH | GISWNSGKIGYADSIH | VGRGGGYFDY |
| 39 | 36 µM | 3 of 3 | CFTFDDYAMH | MISWNSGSIGYAHSVK | VGRGGGYFDY |
| 40 | nd | 0 of 3 | GFTFDDYAMH | GISWNSLSIGYADSKK | VGRGGGYFQY |
| 41 | 31 µM | 1 of 3 | GFTFDDYAMH | GISTNSGSIGYADSVK | VRRGGGYRDY |
| 42 | nd | 0 of 3 | MFTFDDYAMH | GISWNSGSIGMCDSVK | VGRGGGYFDY |
| 43 | 20 µM | 1 of 3 | GFTMDDYAMH | GISWNSGSNGYADSVK | VGRGGGYFHY |
| 44 | 8.3 µM | 3 of 3 | GFTFDDYAMH | GISCNSGSIGYCDSVK | VGRGGGYFDY |
| 45 | nd | 0 of 3 | GFTFDDYAMH | GISWNSGLIGYADSVK | VDRGGGYFDY |
| 46 | nd | 0 of 3 | GFTFDDYRMH | QISWNSGSAGYADSVK | VGRGGGYFDY |
| 47 | nd | 0 of 3 | GFTFDDYAMH | CISWNSGSIGIADSVK | VGRGGGYADY |
| 48 | 9.9 µM | 1 of 3 | GFTFDDYAMH | MISWNSHSIGYADSAK | VGRGGGYFDY |
| 49 | 58 µM | 1 of 3 | GFTFDDYAMH | GISWNSGSIGYADSVK | TGRRGHYFDY |
| 50 | 44 nM | 3 of 3 | GFTFDDYAMH | GISTNSCSKGYADSVK | VGRGGGYFDY |
| 51 | 5.6 µM | 1 of 3 | GFTFDRYAMH | GISWNSGSIGYADSVK | VGNGGLYFDY |
| 52 | 240 µM | 1 of 3 | GFTFDDYAMH | GIIWNSGSIGDADLVK | VGRGGGYFDY |
| 53 | 11 µM | 1 of 3 | VFTFDDYAMH | GISWNSGSIGYADSVK | VGRGGGYIDY |
| 54 | 710 µM | 2 of 3 | GFTWDDYAMH | GISWNSGSIGYADSVK | VGRIKGYFDY |
| 55 | nd | 0 of 3 | GFTFDDYDMH | GISWNSGSIGYAVSVK | VGRGGGYFDY |
| 56 | 570 nM | 2 of 3 | GFPFDDYAMH | GISWNSGSIWYADSVK | VGRGGGYEDY |
| 57 | 130 µM | 1 of 3 | GFTFDDKAMH | GISWNSGSIGYAFSVK | VGRGGGYFDY |
| 58 | 180 µM | 3 of 3 | GFTFDDYAMH | GISWGSGSLGYADSVK | VGRGGGYEDY |
| 59 | 2.5 µM | 3 of 3 | GFTFWDYAMH | GISWNSGSIGYADSIK | VGQGGGYFDY |
| 60 | 8.1 µM | 1 of 3 | GDTFDDYAME | GISWNSGSIGYYDSVK | VGRGGGYFDY |
| 61 | 280 nM | 3 of 3 | GFTFDMYAMH | GISWNSGSIGYADSVK | VGHFGGYFDY |

Parent in this assay: reference entry 72 nM, copy in this library 7.5 nM. Background: pairings of library AAYL51 with three empty control strains gave a value in 21% of cases (median 34 µM, 5th percentile 1.8 µM). Values in that range, when seen in few replicates, are hard to tell from nonspecific mating.